Tests used:
[1] = target: T1, Human autotaxin enzyme (Homo sapiens, UniProt Q13822); assay: Evaluation of autotaxin inhibitor, Method B (Test Example 2): TG-mTMP fluorescence; format: biochemical; conditions: read-out: Inhibitory Activity (autotaxin enzyme inhibitory activity, IC50 class), Assay Method B (Test Example 2)
[2] = target: T1, Human autotaxin enzyme; assay: Evaluation of autotaxin inhibitor, Method C (Test Example 3): 18:0 Lyso PC, choline assay, Resorufin fluorescence; conditions: read-out: Inhibitory Activity (autotaxin enzyme inhibitory activity, IC50 class), Assay Method C (Test Example 3), 18:0 Lyso PC substrate
Description: (Method C) Evaluation of Autotaxin Inhibitor
Solution B containing 100 mM Tris-HCl buffer (pH7.5), 150 mM NaCl, 5 mM MgCl2 and 0.05% Triton X-100 was prepared. Human autotaxin enzyme (purchased from R&D System) was diluted with Solution B, and 2.5 μL of which was added to a solution of test compound in DMSO. Furthermore, 2.5 μl of 200 μM 18:0 Lyso PC (purchased from Avanti Polar Lipids) in Solution B was added and allowed to react at room temperature for 2 hours. After completion of the reaction, 15 μL of the coline assay reagent (100 mM Tris-HCl buffer (pH7.5), 5 mM MgCl2, 77 μg/mL choline oxidase, 10 μg/mL peroxidase, 25 μM 10-acetyl-3,7-dihydroxyphenoxazine and excess autotaxin inhibitor) was added and allowed to react at room temperature for 20 minutes. The fluorescent dye Resorufin, which was produced by the reaction, was detected. The fluorescence was detected using ViewLux (PerkinElmer, Inc.) with an excitation wavelength of 531 nm and a fluorescence wavelength of 598 nm.
The percent inhibition of the test compound was calculated by assuming the sample with no test compound as 0% inhibition and the sample with no enzyme as 100% inhibition, and the percent inhibitions at different concentrations of the test compound were plotted to obtain a concentration-dependent curve.

Work on CCCCCn1c(N2CCCC2CCC(C)C)cc(=O)n2cc(-c3ccc(Cl)cc3)nc12 (centres unmarked) yielded an IC50 [1] of 10 to 100 nM.
For CCCCCn1c(N2CCC[C@H]2C(=O)NC(C)(C)CC(=O)OCC)cc(=O)n2cc(-c3ccc(Cl)cc3)nc12, the IC50 [2] was 10 to 100 nM.
